Measured values as given in patent publication US12662501B2, “Transcriptome In Vivo Analysis (TIVA) and Transcriptome In Situ Analysis (TISA)” (The Trustees of the University of Pennsylvania, priority 2014, dated 2026).

Experiments:
[1] = test system: 1-cell-stage zebrafish embryos; conditions: +/−hv, observed at 24 and 48 hours
[2] = test system: 25mer RNA

For “[Ru(bpy)2(3-ethynyl-pyridine)2](PF6)2 [RuBEP]”, the “quantum yield Φ of photodissociation of one 3-EP ligand” value (1-P, in air) was 0.33, the ε (1P, 445 nm) was 6700 M⁻¹ cm⁻¹ and the ε (1P, 450 nm) was 6700 M⁻¹ cm⁻¹. For the same substance, the εΦ (1P, 450 nm, in air) was 2140, the “toxicity in zebrafish embryos” value [1] was “non-toxic” and the “damage to 25mer RNA” value [2] was “no damage”.

Like-named read-outs stand apart in the source and are kept apart here.
